Data from PMC9246016, “Effects of ginkgo leaf tablet on the pharmacokinetics of rosiglitazone in rats and its potential mechanism” (Pharmaceutical Biology, 2022).

The chains behind the UniProt entries cited, without tags or fusion partners.
UniProt P11712, whole entry: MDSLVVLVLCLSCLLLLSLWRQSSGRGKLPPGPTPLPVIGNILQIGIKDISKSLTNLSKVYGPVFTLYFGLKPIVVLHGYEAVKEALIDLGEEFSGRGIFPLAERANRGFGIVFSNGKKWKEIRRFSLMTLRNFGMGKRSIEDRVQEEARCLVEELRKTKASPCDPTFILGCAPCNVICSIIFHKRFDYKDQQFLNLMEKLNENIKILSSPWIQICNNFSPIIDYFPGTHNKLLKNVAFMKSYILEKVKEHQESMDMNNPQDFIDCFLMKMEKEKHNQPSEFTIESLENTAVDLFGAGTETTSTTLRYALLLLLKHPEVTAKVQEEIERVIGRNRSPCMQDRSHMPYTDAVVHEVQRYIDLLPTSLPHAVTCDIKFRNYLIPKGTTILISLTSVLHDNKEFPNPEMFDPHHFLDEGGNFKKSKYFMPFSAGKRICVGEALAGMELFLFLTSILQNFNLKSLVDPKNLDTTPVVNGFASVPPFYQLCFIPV

Tests used:
[1] = target: recombinant human CYP2C9 (RHCYP2C9) (Homo sapiens, UniProt P11712); experiment: Inhibition of RHCYP2C9 yeast microsomes, probe substrate diclofenac
Experimental: RHCYP2C8 and RHCYP2C9 yeast microsomes were extracted using the glass bead crushing method and differential centrifugation, with grinding 15 times by 0.5 g glass beads and centrifugation at 9,000 g for 20 min at 4 °C. The supernatant was then centrifuged at 100,000 g at 4 °C (BECKMAN COULTER Optima™ L-80 XP Ultracentrifuge) for 1 h, and the precipitation was RHCYP2C8 or RHCYP2C9 yeast microsome. Reconstituted with potassium phosphate buffer (pH 7.4), the microsome solution was collected and stored at −80 °C for subsequent examination. Protein concentrations of microsomes were determined using the Lowry method.
Amodiaquine and diclofenac are typical CYP2C8 and CYP2C9 probe substrates, respectively. […] The reactions were initiated by the addition of NADPH with pre-incubation 10 min in advance and carried out for 40 min.
The CYP2C8 sample treatment process was that incubation was terminated by adding 200 μL of methanol. Samples were centrifuged at 12,000 rpm for 10 min, and the supernatant was subjected to HPLC. The CYP2C9 sample treatment process was that each sample (100 μL) was spiked with 10 μL of carbamazepine (30 μg/mL). The mixture was then extracted with 500 μL ethyl acetate by vortexing for 3 min and centrifuged at 12,000 rpm for 10 min. […] The residue was dissolved in 100 μL methanol for HPLC analysis.

[2] = Pharmacokinetics of ROS with single-dose GLT in rats; conditions: ROS 10 mg/kg
[3] = Pharmacokinetics of ROS after 10-day multiple-dose GLT in rats; conditions: ROS 10 mg/kg
[4] = multiple-dose GLT 100 mg/kg 10 days
[5] = multiple-dose GLT 200 mg/kg 10 days

IC50 [1] | increase of t1/2 vs control ([2]; single-dose GLT 100 mg/kg) | increase of t1/2 vs control ([2]; single-dose GLT 200 mg/kg) | differences in AUC0-t, Cmax, and Tmax of ROS vs control ([2]; single-dose GLT 100 or 200 mg/kg) | downregulation (decrease) of t1/2 vs control [3, 4] | increase of CL/F vs control [3, 4] | reduction of AUC0-t vs control [3, 4] | reduction of Cmax vs control [3, 4] | downregulation (decrease) of t1/2 vs control [3, 5] | increase of CL/F vs control [3, 5] | reduction of AUC0-t vs control [3, 5] | reduction of Cmax vs control [3, 5] | Compound
27.3 µM | – | – | – | – | – | – | – | – | – | – | – | O=c1c(O)c(-c2ccc(O)c(O)c2)oc2cc(O)cc(O)c12 [quercetin]
– | 30% | 52% | no significant difference | 28% | about 80% | 39% | 26% | 39% | ~110% | 52% | 27% | CN(CCOc1ccc(CC2SC(=O)NC2=O)cc1)c1ccccn1 (stereo not drawn) [ROS, Rosiglitazone]
